Experimental data: patent US20240058452A1, “PHARMACEUTICAL COMPOSITION CONTAINING TEMPERATURE-RESPONSIVE IONIC LIQUID” (priority 2019, published 2024)

Legend:
[1] = test system: human cultured epidermal model (LabCyte EPI-MODEL12); conditions: pregabalin 10 mg/mL in 100 mmol/L aqueous solution or dispersion of the ionic liquid, 300 μL donor, 37° C., control in water 252
Procedure: A human cultured epidermal model (LabCyte EPI-MODEL12, Japan Tissue Engineering Co., Ltd.) was used. The phase on the stratum corneum side of the model was defined as a donor phase, whereas the phase on the stratum basal side of the model was defined as a receptor phase. Whether a temperature-responsive ionic liquid enhances the permeation of pregabalin from the donor phase to the receptor phase was examined. The test was carried out in an incubator of 37° C. Pregabalin was dissolved in water, or a 100 mmol/L aqueous solution or water dispersion of a temperature-responsive ionic liquid to a concentration of 10 mg/mL. Each solution (300 μL) was added to the donor phase. Twenty-four hours later, a receptor fluid was sampled and analyzed by LC-MS/MS to obtain the amount of pregabalin permeated. The Hanks' balanced salt solution was used as the receptor fluid.

[2] = Confirmation of temperature responsive property of ionic liquid (lower critical solution temperature by absorbance at 450 nm); assay type: physicochemical; conditions: for LCST (lower critical solution temperature): ionic liquid-water sample, absorbance 450 nm, UV1650PC, heating 20° C.→95° C. (0.5° C./minute), initial waiting 10 minutes
Procedure: (§1) Whether an ionic liquid is a temperature-responsive ionic liquid having a lower critical solution temperature (LCST-type temperature-responsive ionic liquid) is determined by measuring the absorbance of the liquid at a wavelength within a visible light region while gradually increasing the temperature and observing white turbidity, in other words, an abrupt increase in absorbance at a certain temperature caused by an increase in degree of hydrophobicity. The specific procedure is as follows. First, a mixture of an ionic liquid and water is prepared and the layer state at room temperature is observed. Then, the mixture is placed in a refrigerator of 4° C., sufficiently stirred and allowed to stand still for one hour. The state of the mixture is observed. If the layer state of the ionic liquid-water mixture at room temperature is the same as the layer state at 4° C., the mixture is increased in temperature at a rate of 0.5° C./minute within the range of 20° C. to 95° C. and the absorbance of the mixture is measured at 450 nm. Based on a change in absorbance, whether the ionic liquid thus measured is LCST-type temperature-responsive ionic liquid or not can be checked.
The obtained data of absorbance change can be analyzed by differential calculus according to Tm (nucleic acid melting temperature) analysis program to obtain the lower critical solution temperature. In contrast, if the phase state of the ionic liquid-water mixture at room temperature is different from the state at 4° C., the mixture is increased in temperature at a rate of 0.5° C./minute within the range of 5° C. to 40° C. and the absorbance of the mixture is measured at 450 nm. Based on a change in absorbance, whether the ionic liquid thus measured is LCST-type temperature-responsive ionic liquid or not can be checked.
(§2) More specifically, the temperature responsive property was examined by measuring a absorbance at 450 nm at different temperatures in the following measurement conditions to obtain a change in absorbance.
(0.5° C./minute) • Analysis method: calculation by differential calculus using Tm (nucleic acid melting temperature) analysis program
(§3) (0.5° C./minute) • Analysis method: calculation by differential calculus using Tm (nucleic acid melting temperature) analysis program.
as §3

[3] = mixture of ionic liquid and water as obtained in the synthesis
Procedure: as §1, §2

[4] = test system: human cultured epidermal model (LabCyte EPI-MODEL12); conditions: 37° C.
Procedure: A human cultured epidermal model (LabCyte EPI-MODEL12, Japan Tissue Engineering Co., Ltd.) was used. The phase on the stratum corneum side of the model was defined as a donor phase, whereas the phase on the stratum basal side of the model was defined as a receptor phase. […] The test was carried out in an incubator of 37° C. […] Each solution (300 μL) was added to the donor phase. […] The Hanks' balanced salt solution was used as the receptor fluid.

| Substance | 24-hour Cumulative permeation amount of pregabalin [1] [μg/cm^2] | LCST (lower critical solution temperature) [2] | compatibility with water at room temperature [3] | other results |
| --- | --- | --- | --- | --- |
| diisopropanolammonium decanoate [Reference Example 4-sample, reference compound] | 493 | – | – | – |
| tetrabutylammonium 4-(trifluoromethyl)salicylate [Synthesis Example 10-sample] | 3480 | 23.7 °C | separated from water at room temperature | – |
| tetrabutylammonium salicylate [Synthesis Example 11-sample] | 1120 | 37.2 °C | compatible with water at room temperature | – |
| tetrabutylphosphonium 3-carboxy-4-hydroxybenzene-sulfonate [Synthesis Example 8-sample] | – | 29.6 °C | – | – |
| tetrabutylphosphonium 3-methylsalicylate [Synthesis Example 3-sample] | – | 23.5 °C | compatible with water at room temperature | – |
| tetrabutylphosphonium 4-aminosalicylate [Reference Example 1-sample, reference compound] | – | None | – | temperature responsive property ([2]; change in absorbance at 450 nm with temperature): does not exhibit a temperature responsive property |
| tetrabutylphosphonium 4-aminotoluene-3-sulfonate [Synthesis Example 14-sample] | – | 41.4 °C | compatible with water at room temperature | – |
| tetrabutylphosphonium 4-chlorosalicylate [Synthesis Example 5-sample] | – | 29.7 °C | – | – |
| tetrabutylphosphonium 4-hydroxybenzenesulfonate [Synthesis Example 13-sample] | – | 24.7 °C | separated from water at room temperature | – |
| tetrabutylphosphonium 4-methylsalicylate [Synthesis Example 4-sample] | – | 24.5 °C | compatible with water at room temperature | – |
| tetrabutylphosphonium 5-bromosalicylate [Synthesis Example 2-sample] | – | 27.7 °C | separated from water at room temperature | – |
| tetrabutylphosphonium 5-chlorosalicylate [Synthesis Example 6-sample] | – | 32.4 °C | – | – |
| tetrabutylphosphonium 5-iodosalicylate [Synthesis Example 7-sample] | – | 32.7 °C | – | – |
| tetrabutylphosphonium m-xylene-4-sulfonate [Synthesis Example 15-sample] | 1100 | 23.7 °C | separated from water at room temperature | – |
| tetrabutylphosphonium salicylate [Synthesis Example 9-sample] | 3410 | 25.7 °C | compatible with water at room temperature | 24-hour Cumulative permeation amount of etodolac ([4]; etodolac in 100 mmol/L aqueous solution of the ionic liquid, 300 μL donor, control in 0.5% methyl cellulose 34.9): 42.5 μg/cm^2; 24-hour Cumulative permeation amount of lidocaine hydrochloride monohydrate ([4]; lidocaine hydrochloride monohydrate 10 mg/mL in 100 mmol/L aqueous solution or dispersion of the ionic liquid, control in water 308): 829 μg/cm^2; 24-hour Cumulative permeation amount of tramadol hydrochloride ([4]; tramadol hydrochloride 10 mg/mL in 100 mmol/L aqueous solution or dispersion of the ionic liquid, control in water 300): 4030 μg/cm^2 |
